# Test system: subjects with primary osteoarthritis of the knee
# Experiment: 12-week randomized controlled trial: safety (adverse events, laboratory parameters, ocular examination)
# Assay type: in vivo, human
# Conditions: 12 weeks
# Method: Study Design: Eligible subjects were stratified by the investigator at baseline into stratum 1 (no pain and normal radiological examination in the non-study knee) or stratum 2 (pain and/or abnormal radiological examination in the non-study knee), and then randomized into the trial by receiving the next numbered study kit at that clinic for that stratum. […] Subjects applied 40 drops of solution (approximately 1.2 mL) around the entire circumference of the study knee, without massage, 4 times daily, and took one study tablet daily for up to 12 weeks.
# Each subject completed a full efficacy assessment questionnaire after randomization at baseline and at 4, 8 and 12 weeks, or at drop out. […] The POHA asked the question, “Considering all the ways your osteoarthritic (study) knee and its treatment affect you, including both positive and negative effects, how would you rate your overall state of health in the past 48 hours?” Secondary efficacy variables were WOMAC stiffness and patient global assessment (“PGA”) of knee osteoarthritis. The PGA asked the question, “How has the osteoarthritis in your study joint been over the last 48 hours?” The POHA and PGA were scored on a 5-point Likert scale. There was no assessment of the non-treated knee. […] Adverse events were categorized according to Coding Symbols for Thesaurus of Adverse Reaction Terms (“COSTART”). […]
smiles,measurement,value
"O=C(O)Cc1ccccc1Nc1c(Cl)cccc1Cl [ODiclo, diclofenac]",Liver function tests abnormal,12 (7.9) number (%) of subjects
